Tests used:
A*6801 = A*6801 (Homo sapiens, UniProt P04439, A269V/D185E/E176V/E277Q/E87N/F33Y/G231S/I121M/I166T/I218V/L180W/L300P/L318F/N151K/P208A/P217A/Q86R/R169H/T345S); test: Purified HLA class I peptide binding assay
B*5401 = B*5401 (Homo sapiens, UniProt P01889, A329T/C349S/D138N/D201E/E176V/E187T/E204Q/E69G/I76V/K202T/L119W/R155S/R180L/S121T/S35A/S48A/V127L/V306I/V36M/Y140L); test: biochemical; type: binding
A*0301 = A*0301 (Homo sapiens, UniProt P04439); test: Purified HLA class I peptide binding assay (HLA-A*03)
A*0101 = A*0101 (Homo sapiens, UniProt P04439, A114D/A174V/A182V/D101N/D185E/E176A/E190D/L180R/Q94H/R68K/S129P/T187R/V100A/V91M/W191G); test: biochemical

Chains of the proteins cited; added tags and fusions are not shown. Lines headed by an entry give the natural chain unless they say otherwise; changes in a name come on top.
UniProt P01889: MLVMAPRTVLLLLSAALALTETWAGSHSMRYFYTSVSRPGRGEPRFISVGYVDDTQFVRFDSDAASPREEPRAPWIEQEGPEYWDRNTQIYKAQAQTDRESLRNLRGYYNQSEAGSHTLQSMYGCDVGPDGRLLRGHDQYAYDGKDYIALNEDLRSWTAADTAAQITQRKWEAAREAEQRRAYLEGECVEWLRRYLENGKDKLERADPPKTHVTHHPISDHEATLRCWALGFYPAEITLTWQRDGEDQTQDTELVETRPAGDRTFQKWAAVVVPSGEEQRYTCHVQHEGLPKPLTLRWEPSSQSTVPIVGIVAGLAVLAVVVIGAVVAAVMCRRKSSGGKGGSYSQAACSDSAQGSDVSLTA

Structure (SMILES)	IC50 (B*5401) [nM]	further results
CC(C)C[C@H](NC(=O)[C@H](CC(=O)O)NC(=O)[C@@H](NC(=O)[C@@H](N)[C@@H](C)O)[C@@H](C)O)C(=O)N[C@@H](CCC(=O)O)C(=O)N[C@@H](C)C(=O)N[C@@H](Cc1ccc(O)cc1)C(=O)N[C@@H](Cc1ccccc1)C(=O)N[C@@H](CCCCN)C(=O)O [Peptide 1.0215.]	–	IC50 (A*6801): 471 nM
CC(C)C[C@H](NC(=O)[C@H](CCC(N)=O)NC(=O)[C@H](Cc1c[nH]cn1)NC(=O)[C@H](CC(=O)O)NC(=O)[C@@H]1CCCN1C(=O)[C@@H](N)Cc1ccccc1)C(=O)N[C@@H](CC(=O)O)C(=O)N1CCC[C@H]1C(=O)N[C@@H](C)C(=O)O [Peptide 16.0006]	12	–
CC[C@H](C)[C@H](NC(=O)[C@@H]1CCCN1C(=O)[C@@H](N)CC(C)C)C(=O)N[C@@H](Cc1c[nH]cn1)C(=O)N[C@H](C(=O)N[C@@H](C)C(=O)N[C@@H](CCC(=O)O)C(=O)N[C@@H](CC(C)C)C(=O)N[C@@H](CC(C)C)C(=O)N[C@@H](C)C(=O)O)[C@@H](C)O [Peptide 16.0181]	30	–
CC(C)C[C@H](NC(=O)[C@H](Cc1ccccc1)NC(=O)[C@@H](NC(=O)CNC(=O)CNC(=O)[C@@H](NC(=O)[C@@H](NC(=O)[C@H](CCCNC(=N)N)NC(=O)[C@H](C)NC(=O)[C@@H]1CCCN1C(=O)[C@@H](N)[C@@H](C)O)C(C)C)[C@@H](C)O)C(C)C)C(=O)O [Peptide 26.0568]	20000	–
CC(C)C[C@H](NC(=O)[C@@H](NC(=O)[C@@H](NC(=O)[C@H](CO)NC(=O)[C@H](CC(N)=O)NC(=O)[C@H](CC(=O)O)NC(=O)[C@@H](NC(=O)CN)[C@@H](C)O)C(C)C)C(C)C)C(=O)N[C@@H](CO)C(=O)N[C@@H](CCCNC(=N)N)C(=O)N[C@@H](CCCCN)C(=O)O [Peptide 1147.17]	–	IC50 (A*0301): 786 nM
CSCC[C@H](NC(=O)[C@@H](N)Cc1ccc(O)cc1)C(=O)N[C@@H](CC(=O)O)C(=O)N[C@@H](CC(=O)O)C(=O)N[C@H](C(=O)N[C@H](C(=O)N[C@@H](CC(C)C)C(=O)NCC(=O)N[C@@H](C)C(=O)O)C(C)C)C(C)C [peptide 1090.14]	–	IC50 (A*0101): 96 nM
